Patent US20240408054A1, “COMPOSITIONS AND METHODS FOR […] OF R(-)-MDA” (priority 2023, published 2024)

Assay: Phase 1 clinical study: safety and tolerability
Conditions: highest dose (225 mg)

For CN[C@H](C)Cc1ccc2c(c1)OCO2 [R(−)-MDMA], the Bruxism was “observed in a single subject”.
